Here are results for 20 compounds from PubChem BioAssay (Tox21).

Amino acid sequences for entries named in this document (tags omitted).
UniProt P10635, whole entry: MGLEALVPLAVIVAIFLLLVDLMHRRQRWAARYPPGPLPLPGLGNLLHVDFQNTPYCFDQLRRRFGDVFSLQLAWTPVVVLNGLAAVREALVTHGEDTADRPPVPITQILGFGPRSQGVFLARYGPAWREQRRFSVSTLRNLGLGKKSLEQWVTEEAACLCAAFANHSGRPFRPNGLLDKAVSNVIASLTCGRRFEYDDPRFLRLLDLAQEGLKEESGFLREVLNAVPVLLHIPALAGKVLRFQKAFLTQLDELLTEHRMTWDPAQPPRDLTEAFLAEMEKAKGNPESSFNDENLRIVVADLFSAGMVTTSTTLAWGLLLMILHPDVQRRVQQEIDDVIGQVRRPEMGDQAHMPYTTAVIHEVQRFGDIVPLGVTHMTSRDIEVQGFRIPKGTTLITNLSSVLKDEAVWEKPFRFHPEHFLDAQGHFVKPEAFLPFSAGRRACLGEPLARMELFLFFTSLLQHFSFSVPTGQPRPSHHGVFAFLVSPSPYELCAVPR

SMILES strings stand for the structures. Only a part is listed here, and it is no random draw. Records with an inconclusive call do not appear. Some compounds were tested as several samples or in several runs, with calls that do not always agree. Active and inactive are the calls of the source. Calls follow the shape of the dose curve; as a rule, active = well fitted inhibition curve with a large enough effect in the repeat runs; inconclusive = weak or mixed curves; inactive = no such curve, though single readings can be large or run the other way.
% is scaled to controls: 0 for no effect and ±100 for the full control effect; potency is read from the fitted curve at half-maximal effect.

For the experiment, the target named is Cytochrome P450 2D6 (Homo sapiens) (UniProt P10635). The experiment is described as follows: Cytochrome P450 Family 2 Subfamily D Member 6 (CYP2D6) small molecule antagonists: luciferase reporter qHTS assay (AID 1671196). Also: nearly all actives have a fitted effect of over 50% in size. Particulars: P450-Glo CYP2D6 enzyme assay, luciferin luminescence, 1 h; series mostly up to 115 µM; activity change, negative = inhibition: at the top concentration. An excerpt:
U.S. Tox21 Program National Center for Advancing Translational Sciences [NCATS] U.S. Environmental Protection Agency [EPA] National Institutes of Environmental Health Sciences [NIEHS] National Toxicology Program [NTP] U.S. Food and Drug Administration [FDA] Tox21 Assay Overview: Cytochrome P450 (CYP) enzymes are membrane-bound hemeproteins that play a key role in metabolism of drugs and xenobiotics. Evaluation of the effect of chemicals on CYP isozymes is useful to minimize the adverse drug reactions and toxicities in drug development process. Tox21 chemicals were tested for their effect on CYP enzyme activities by using P450-Glo (TM) screening systems (Promega Corporation, Madison, WI). These systems provide a luminescent method containing proluciferin substrates and are converted to luciferin products by CYP isozymes. The luciferin products formed are detected with a luciferin detection reagent, and the amount of light produced is proportional to CYP activity. P450-Glo (TM) CYP2D6 screening system (Catalog. No. V9890) was used to detect the compounds that interfere in CYP2D6 activity.
Tox21 Assay Protocol Summary: Two ul of enzyme-substrate mix was dispensed into medium binding white/solid 1536-well plates (Greiner Bio-One North America Inc., Monroe, NC) using a BioRaptr Flying Reagent Dispenser (FRD, Beckman Coulter, Brea, CA). […] The assay plates were incubated at room temperature for 10 min. Then 2 ul of NADPH regeneration solution was added to each well of the assay plates using an FRD and incubated at room temperature for 1 h. The reaction was stopped by adding 4 ul of detection reagent using an FRD and after 20 min incubation at room temperature the luminescence signal was measured using a ViewLux plate reader (Perkin Elmer, Shelton, CT). Data were expressed as relative luminescence units.
With `OCCSCCO`, the Potency was active: 32.2 µM and inactive. With `COc1ccc([N+](=O)[O-])cc1[N+](=O)[O-]`, the “activity change, negative = inhibition” value was inactive: -19.6%. On to `C/C1=C2N=C(/C=C3N=C(/C(C)=C4\[N-][C@@](C)([C@@H]5N=C1[C@](C)(CCC(=O)NC[C@@H](C)OP(=O)([O-])O[C@H]1[C@@H](O)[C@@H](n6cnc7cc(C)c(C)cc76)O[C@@H]1CO)[C@H]5CC(N)=O)[C@@](C)(CC(N)=O)[C@@H]4CCC(N)=O)[C@@](C)(CC(N)=O)[C@@H]\3CCC(N)=O)C(C)(C)[C@@H]/2CCC(N)=O.[C-]#N.[Co+3]`, for which the “activity change, negative = inhibition” value is inactive: -26.4% [at 53 µM]. With `COP(C)(=O)OC`, the Potency entry is “inactive”. Same read-out and setting: the figure for `Cc1ccc([N+](=O)[O-])c([N+](=O)[O-])c1` is active: 36.3 µM; for `[NH4+].[O-][Cl+3]([O-])([O-])[O-]` it is “inactive”; for `O=[N+]([O-])c1cccc([N+](=O)[O-])c1` it is active: 66 µM. As for `N=C(N)N[N+](=O)[O-]`, the “activity change, negative = inhibition” value was inactive: -0.802%.

In the case of `CCOP(=O)(CC)OCC`, the “activity change, negative = inhibition” value was inactive: -0.61%. On the same count and under the same terms, the figure for `N#CBr` is inactive: -13%. As for `CP(=O)(O)OCCC[Si](O)(O)O`, the “activity change, negative = inhibition” value was inactive: -6.73%. Still for that read-out and setting: the figure for `O=[N+]([O-])OCC(CO[N+](=O)[O-])(CO[N+](=O)[O-])CO[N+](=O)[O-]` is inactive: -0.173%. On to `O=[N+]([O-])[O-].[NH4+]`, for which the Potency result is “inactive”. For `CCOP(=O)(CC)Oc1ccc([N+](=O)[O-])cc1` (stereo not given), the Potency is active: 3.09 µM. For `Cc1cccc([N+](=O)[O-])c1[N+](=O)[O-]`, the Potency was active: 53.3 µM.

Regarding `CC(C)OP(C)(=O)OC(C)C`, the Potency result was “inactive”.

With `Cc1ccc([N+](=O)[O-])cc1[N+](=O)[O-]`, the Potency was active: 35.1 µM and inactive.

In the case of `CN(C)CCCl`, the “activity change, negative = inhibition” value is inactive: -8.62%. The same measure, in the same setting: the figure for `CC(C)N(CCO)C(C)C` is inactive: -0.594%. Take `Cc1c([N+](=O)[O-])cccc1[N+](=O)[O-]`: the Potency result was “inactive”.
